Here are results for 37 compounds from patent US11186582B2, “Substituted [1,2,4]triazolo[1,5-a]pyrimidin-7-yl compounds as PDE2 inhibitors” (DART NEUROSCIENCE (CAYMAN) LTD., priority 2014, dated 2021).

Amino acid sequences for entries named in this document (tags omitted). Residues count along the entry.
UniProt O00408, 2-941: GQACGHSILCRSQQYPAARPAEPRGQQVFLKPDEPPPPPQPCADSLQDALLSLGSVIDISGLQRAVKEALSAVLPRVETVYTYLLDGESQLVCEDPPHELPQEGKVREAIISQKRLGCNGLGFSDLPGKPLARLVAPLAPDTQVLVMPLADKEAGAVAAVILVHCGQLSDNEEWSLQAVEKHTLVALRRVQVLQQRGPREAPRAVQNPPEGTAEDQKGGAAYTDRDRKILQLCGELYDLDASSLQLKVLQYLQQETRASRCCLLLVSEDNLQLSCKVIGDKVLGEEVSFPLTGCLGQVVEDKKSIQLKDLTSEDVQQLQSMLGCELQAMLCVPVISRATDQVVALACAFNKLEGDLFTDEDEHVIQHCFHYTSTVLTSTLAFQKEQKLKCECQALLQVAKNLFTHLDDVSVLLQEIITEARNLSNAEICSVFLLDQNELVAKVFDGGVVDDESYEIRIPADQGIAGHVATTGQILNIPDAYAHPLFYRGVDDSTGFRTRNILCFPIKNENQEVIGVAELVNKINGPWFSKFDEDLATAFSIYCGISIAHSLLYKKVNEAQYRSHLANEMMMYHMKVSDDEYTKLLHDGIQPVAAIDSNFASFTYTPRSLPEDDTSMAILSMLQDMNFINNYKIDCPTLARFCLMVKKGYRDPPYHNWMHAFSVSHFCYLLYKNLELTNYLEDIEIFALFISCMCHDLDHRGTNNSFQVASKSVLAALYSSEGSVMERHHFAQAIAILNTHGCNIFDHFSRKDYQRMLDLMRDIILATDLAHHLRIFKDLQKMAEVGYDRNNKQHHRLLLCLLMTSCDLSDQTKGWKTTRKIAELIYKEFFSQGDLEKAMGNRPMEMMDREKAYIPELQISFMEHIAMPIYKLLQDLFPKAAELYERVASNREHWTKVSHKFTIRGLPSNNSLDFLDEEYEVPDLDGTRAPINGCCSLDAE

Where only a bound is given, the exact number is not on record here.

The target in one assay is FLAG-tagged PDE2A1 (amino acids 2-941) (Homo sapiens (Human), UniProt O00408). Description: IMAP TR-FRET PDE2A phosphodiesterase enzymatic assay.
Details: not given
(In general: Time-resolved FRET reads energy transfer from a long-lived donor to a nearby acceptor.)
Regarding `Cc1ccnc(C(=O)N2CCCC(c3cc(C)nc4ncnn34)C2)c1` (stereo not shown) [Example 385, 4-Methyl-2-[(3-{5-methyl-[1,2,4]triazolo[1,5-a]pyrimidin-7-yl}piperidin-1-yl)carbonyl]pyridine], the IC50 was in the range of 100 to 1000 nM.
The compound `COc1ccc(C(=O)N2CCCC(c3cc(C)nc4ncnn34)C2)cn1` (stereo not shown) [Example 386, 2-Methoxy-5-[(3-{5-methyl-[1,2,4]triazolo[1,5-a]pyrimidin-7-yl}piperidin-1-yl)carbonyl]pyridine] returned an IC50 of 100 to 1000 nM.
On the same count and under the same terms, the result for `Cc1cc(C2CCCN(C(=O)c3cccnc3)C2)n2ncnc2n1` (stereo not shown) [Example 387, 3-[(3-{5-Methyl-[1,2,4]triazolo[1,5-a]pyrimidin-7-yl}piperidin-1-yl)carbonyl]pyridine] reads 1000 to 10000 nM.
The same measure, in the same setting: the figure for `Cc1cccc(C(=O)N2CCCC(c3cc(C)nc4ncnn34)C2)n1` (stereo not shown) [Example 391, 2-Methyl-6-[(3-{5-methyl-[1,2,4]triazolo[1,5-a]pyrimidin-7-yl}piperidin-1-yl)carbonyl]pyridine] is greater than 10000 nM; for `Cc1cc(C2CCCN(C(=O)c3ccccn3)C2)n2ncnc2n1` (stereo not shown) [Example 395, 2-[(3-{5-Methyl-[1,2,4]triazolo[1,5-a]pyrimidin-7-yl}piperidin-1-yl)carbonyl]pyridine] it is greater than 10000 nM.
Still for that read-out and setting: the figure for `Cc1cc(C2CCCN(C(=O)c3ncccc3C)C2)n2ncnc2n1` (stereo not shown) [Example 398, 3-Methyl-2-[(3-{5-methyl-[1,2,4]triazolo[1,5-a]pyrimidin-7-yl}piperidin-1-yl)carbonyl]pyridine] is greater than 10000 nM; for `Cc1cc(C2CCCN(C(=O)c3nccc4ccccc34)C2)n2ncnc2n1` (stereo not shown) [Example 399, 1-[(3-{5-Methyl-[1,2,4]triazolo[1,5-a]pyrimidin-7-yl}piperidin-1-yl)carbonyl]isoquinoline] it is greater than 10000 nM; for `Cc1cc(C2CCCN(C(=O)c3cccnc3C)C2)n2ncnc2n1` (stereo not shown) [Example 400, 2-Methyl-3-[(3-{5-methyl-[1,2,4]triazolo[1,5-a]pyrimidin-7-yl}piperidin-1-yl)carbonyl]pyridine] it is greater than 10000 nM.
In turn, `Cc1cc(C2CCCN(C(=O)c3c(C)nc4ccccn34)C2)n2ncnc2n1` (stereo not shown) [Example 404, 3-{5-Methyl-[1,2,4]triazolo[1,5-a]pyrimidin-7-yl}-1-({2-methylimidazo[1,2-a]pyridin-3-yl}carbonyl)piperidine] displayed an IC50 greater than 10000 nM.
As for `Cc1cc(C2CCCN(C(=O)c3cn4ccccc4n3)C2)n2ncnc2n1` (stereo not shown) [Example 408, 1-({Imidazo[1,2-a]pyridin-2-yl}carbonyl)-3-{5-methyl-[1,2,4]triazolo[1,5-a]pyrimidin-7-yl}piperidine], the IC50 is 100 to 1000 nM.
The same measure, in the same setting: the result for `Cc1cc(C2CCCN(C(=O)c3cccn3C)C2)n2ncnc2n1` (stereo not shown) [Example 409, 1-[(1-Methyl-1H-pyrrol-2-yl)carbonyl]-3-{5-methyl-[1,2,4]triazolo[1,5-a]pyrimidin-7-yl}piperidine] reads 100 to 1000 nM; that for `COc1ccc(C)cc1C(=O)N1CCCC(c2cc(C)nc3ncnn23)C1` (stereo not shown) [Example 410, 1-[(2-Methoxy-5-methylphenyl)carbonyl]-3-{5-methyl-[1,2,4]triazolo[1,5-a]pyrimidin-7-yl}piperidine], 100 to 1000 nM.
Same read-out and setting: the figure for `Cc1cc(C2CCCN(C(=O)c3cc(C)nn3C)C2)n2ncnc2n1` (stereo not shown) [Example 411, 1-[(1,3-Dimethyl-1H-pyrazol-5-yl)carbonyl]-3-{5-methyl-[1,2,4]triazolo[1,5-a]pyrimidin-7-yl}piperidine] is 100 to 1000 nM; for `Cc1cc(C2CCCN(C(=O)c3cccc(C)c3F)C2)n2ncnc2n1` (stereo not shown) [Example 412, 1-[(2-Fluoro-3-methylphenyl)carbonyl]-3-{5-methyl-[1,2,4]triazolo[1,5-a]pyrimidin-7-yl}piperidine] it is 100 to 1000 nM.
Same read-out and setting: the figure for `Cc1cc(C2CCCN(C(=O)c3cccc4ccccc34)C2)n2ncnc2n1` (stereo not shown) [Example 413, 3-{5-Methyl-[1,2,4]triazolo[1,5-a]pyrimidin-7-yl}-1-[(naphthalen-1-yl)carbonyl]piperidine] is 100 to 1000 nM.
Compound `COc1ccc(C(=O)N2CCCC(c3cc(C)nc4ncnn34)C2)c(F)c1` (stereo not shown) [Example 415, 1-[(2-Fluoro-4-methoxyphenyl)carbonyl]-3-{5-methyl-[1,2,4]triazolo[1,5-a]pyrimidin-7-yl}piperidine] displayed an IC50 of 100 to 1000 nM.
Turning to `COc1cc(C)ccc1C(=O)N1CCCC(c2cc(C)nc3ncnn23)C1` (stereo not shown) [Example 416, 1-[(2-Methoxy-4-methylphenyl)carbonyl]-3-{5-methyl-[1,2,4]triazolo[1,5-a]pyrimidin-7-yl}piperidine], the IC50 fell in the range of 100 to 1000 nM.
Same read-out and setting: the result for `COc1cc(F)cc(C(=O)N2CCCC(c3cc(C)nc4ncnn34)C2)c1` (stereo not shown) [Example 417, 1-[(3-Fluoro-5-methoxyphenyl)carbonyl]-3-{5-methyl-[1,2,4]triazolo[1,5-a]pyrimidin-7-yl}piperidine] reads 100 to 1000 nM; that for `Cc1ccc(C(=O)N2CCCC(c3cc(C)nc4ncnn34)C2)c(F)c1` (stereo not shown) [Example 418, 1-[(2-Fluoro-4-methylphenyl)carbonyl]-3-{5-methyl-[1,2,4]triazolo[1,5-a]pyrimidin-7-yl}piperidine], 100 to 1000 nM.
Same read-out and setting: the result for `COc1cccc(C(=O)N2CCCC(c3cc(C)nc4ncnn34)C2)c1C` (stereo not shown) [Example 422, 1-[(3-Methoxy-2-methylphenyl)carbonyl]-3-{5-methyl-[1,2,4]triazolo[1,5-a]pyrimidin-7-yl}piperidine] reads 1000 to 10000 nM; that for `Cc1cc(C2CCCN(C(=O)c3cc(C4CC4)no3)C2)n2ncnc2n1` (stereo not shown) [Example 425, 1-[(3-Cyclopropyl-1,2-oxazol-5-yl)carbonyl]-3-{5-methyl-[1,2,4]triazolo[1,5-a]pyrimidin-7-yl}piperidine], 100 to 1000 nM.
In turn, `Cc1cc(C2CCCN(C(=O)c3ccccc3Cl)C2)n2ncnc2n1` (stereo not shown) [Example 426, 1-[(2-Chlorophenyl)carbonyl]-3-{5-methyl-[1,2,4]triazolo[1,5-a]pyrimidin-7-yl}piperidine] registered an IC50 greater than 10000 nM.
The same measure, in the same setting: the result for `Cc1cc(C2CCCN(C(=O)c3ccccc3-c3ccccc3)C2)n2ncnc2n1` (stereo not shown) [Example 427, 3-{5-Methyl-[1,2,4]triazolo[1,5-a]pyrimidin-7-yl}-1-[(2-phenylphenyl)carbonyl]piperidine] reads 1000 to 10000 nM; that for `Cc1cc(C2CCCN(C(=O)c3cccc(F)c3F)C2)n2ncnc2n1` (stereo not shown) [Example 428, 1-[(2,3-Difluorophenyl)carbonyl]-3-{5-methyl-[1,2,4]triazolo[1,5-a]pyrimidin-7-yl}piperidine], 1000 to 10000 nM; that for `Cc1cc(C2CCCN(C(=O)c3cnoc3C3CC3)C2)n2ncnc2n1` (stereo not shown) [Example 429, 1-[(5-Cyclopropyl-1,2-oxazol-4-yl)carbonyl]-3-{5-methyl-[1,2,4]triazolo[1,5-a]pyrimidin-7-yl}piperidine], greater than 10000 nM.
Still for that read-out and setting: the result for `Cc1cc(C2CCCN(C(=O)c3cc(-c4ccccc4)n(C)n3)C2)n2ncnc2n1` (stereo not shown) [Example 430, 1-[(1-Methyl-5-phenyl-1H-pyrazol-3-yl)carbonyl]-3-{5-methyl-[1,2,4]triazolo[1,5-a]pyrimidin-7-yl}piperidine] reads 100 to 1000 nM.

The assay is the same for the next values; noted with them: IMAP TR-FRET, 200 nM FAM-cAMP substrate, 11-point half-log dose-response.
With `Cc1cc(C2CN(C(=O)c3ccn(-c4cccc(F)c4)n3)CCO2)n2ncnc2n1` (stereo not shown) [Example 384, 4-[1-(3-Fluorophenyl)-1H-pyrazole-3-carbonyl]-2-{5-methyl-[1,2,4]triazolo[1,5-a]pyrimidin-7-yl}morpholine], the “PDE2 (pIC50)” value is reported as greater than 7.
The same measure, in the same setting: the figure for `Cc1cc(C2CCCN(C(=O)c3cc4ccccc4cn3)C2)n2ncnc2n1` (stereo not shown) [Example 389, 3-[(3-{5-Methyl-[1,2,4]triazolo[1,5-a]pyrimidin-7-yl}piperidin-1-yl)carbonyl]isoquinoline] is greater than 7.
`Cc1cc(C2CCCN(C(=O)c3ccc4cccnc4c3)C2)n2ncnc2n1` (stereo not shown) [Example 396, 7-[(3-{5-Methyl-[1,2,4]triazolo[1,5-a]pyrimidin-7-yl}piperidin-1-yl)carbonyl]quinoline]: the “PDE2 (pIC50)” value is greater than 7.
On the same count and under the same terms, the figure for `Cc1cc(C2CCCN(C(=O)c3ccc4ccncc4c3)C2)n2ncnc2n1` (stereo not shown) [Example 397, 7-[(3-{5-Methyl-[1,2,4]triazolo[1,5-a]pyrimidin-7-yl}piperidin-1-yl)carbonyl]isoquinoline] is greater than 7; for `Cc1cc(C2CCCN(C(=O)c3ccc4ccccc4n3)C2)n2ncnc2n1` (stereo not shown) [Example 406, 2-[(3-{5-Methyl-[1,2,4]triazolo[1,5-a]pyrimidin-7-yl}piperidin-1-yl)carbonyl]quinoline] it is greater than 7.
On the same count and under the same terms, the result for `Cc1cc(C2CCCN(C(=O)c3cccc(Cl)c3)C2)n2ncnc2n1` (stereo not shown) [Example 414, 1-[(3-Chlorophenyl)carbonyl]-3-{5-methyl-[1,2,4]triazolo[1,5-a]pyrimidin-7-yl}piperidine] reads greater than 7; that for `Cc1cc(C2CCCN(C(=O)c3cnc4ccccc4n3)C2)n2ncnc2n1` (stereo not shown) [Example 419, 2-[(3-{5-Methyl-[1,2,4]triazolo[1,5-a]pyrimidin-7-yl}piperidin-1-yl)carbonyl]quinoxaline], greater than 7.
The same measure, in the same setting: the result for `Cc1cc(C2CCCN(C(=O)c3cn(C)c4ccccc34)C2)n2ncnc2n1` (stereo not shown) [Example 420, 1-Methyl-3-[(3-{5-methyl-[1,2,4]triazolo[1,5-a]pyrimidin-7-yl}piperidin-1-yl)carbonyl]-1H-indole] reads greater than 7; that for `Cc1cc(C2CCCN(C(=O)c3ccc4ncsc4c3)C2)n2ncnc2n1` (stereo not shown) [Example 421, 6-[(3-{5-Methyl-[1,2,4]triazolo[1,5-a]pyrimidin-7-yl}piperidin-1-yl)carbonyl]-1,3-benzothiazole], greater than 7; that for `Cc1cc(C2CCCN(C(=O)c3ccc4occc4c3)C2)n2ncnc2n1` (stereo not shown) [Example 423, 1-[(1-Benzofuran-5-yl)carbonyl]-3-{5-methyl-[1,2,4]triazolo[1,5-a]pyrimidin-7-yl}piperidine], greater than 7.
Consider `Cc1cc(C2CCCN(C(=O)c3ccc4c(c3)CCCC4)C2)n2ncnc2n1` (stereo not shown) [Example 424, 3-{5-Methyl-[1,2,4]triazolo[1,5-a]pyrimidin-7-yl}-1-[(5,6,7,8-tetrahydronaphthalen-2-yl)carbonyl]piperidine], for which the “PDE2 (pIC50)” value is on record as greater than 7.

The IC50 is the concentration at which inhibition is half-maximal.
